Test results published in paper PMC10618793, “Investigating cannabinoids as P2X purinoreceptor 4 ligands by using surface plasmon resonance and computational docking” (Heliyon, 2023).
Where “and” joins values, the source holds several entries; their conditions need not be identical. Equal entries are not always repeated.

Target: T1, P2X4 receptor (Homo sapiens, UniProt Q99571)
T1 construct: His tag (N); purchased MyBioSource, Inc (San Diego, CA, USA)
T1 sequence (Q99571 77-338): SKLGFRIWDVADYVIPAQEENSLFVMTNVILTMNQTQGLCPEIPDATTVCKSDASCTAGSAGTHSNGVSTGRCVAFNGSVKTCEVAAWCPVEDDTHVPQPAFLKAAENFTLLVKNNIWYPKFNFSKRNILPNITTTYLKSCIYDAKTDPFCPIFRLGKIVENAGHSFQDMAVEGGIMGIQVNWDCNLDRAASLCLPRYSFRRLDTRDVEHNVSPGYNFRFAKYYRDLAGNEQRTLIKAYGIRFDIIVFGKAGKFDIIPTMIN
Experiment: Surface plasmon resonance binding screening assay
Settings: SPR Biacore T200, P2X4 immobilized on CM5 chip, 0.4-300 μM, 1:1 binding model, n.d. = not detectable

CCCc1cc(O)c(C/C=C(\C)CCC=C(C)C)c(O)c1 [CBGV, cannabigerovarin]
Kd (KD (equilibrium dissociation constant)): 3.1 µM and 3.11 µM
koff (read-out: Koff (dissociation rate)): 0.0263 s⁻¹
kon (read-out: Kon (association rate)): 8450 M⁻¹ s⁻¹
